Measurements taken from patent publication US20250179194A1, “COMPOSITIONS AND METHODS FOR IMMUNOTHERAPY TARGETING FLT3, PD-1, AND/OR PD-L1” (Cytoimmune Therapeutics, Inc., priority 2018, published 2025).

Test system: surface FLT3 expression in MOLM-13, U937, THP-1, MV4-11, and EOL-1 AML cell lines
Assay: Surface FLT3 expression in AML cell lines after FLT3 inhibitor treatment
Format: cell-based, human
Conditions: 10 μM, 48 hours

CC(C)(C)c1cc(NC(=O)Nc2ccc(-c3cn4c(n3)sc3cc(OCCN5CCOCC5)ccc34)cc2)no1 [Quizartinib (AC220), Quizaritinib]
FLT3 surface expression in AML cell lines: upregulated
